These results are taken from ChEMBL document CHEMBL1129803, “Novel phenyl nitrogen mustard and half-mustard derivatives of distamycin A” (1997).

≈ marks a conversion by molar mass, not a printed value. Where “and” joins values, the source holds several entries; their conditions need not be identical. Identical values can stand only once. A value given as a limit tells only on which side of the number the result lay.

The nature of series [1]: Hydrolysis in acetone/water (50:50) at a pH of 8.0,T =66 degree Centigrade. The following applies: buffer, pH 8.
Series [2] in a line: Alkylation of 4-(4-nitrobenzyl)pyridine (NBP) by the compound at a temperature of 66 degree Centigrade.
Series [3] concerns L1210. In words: Compound was tested in vitro for cytotoxicity after 48 hr of continuouse exposure against L1210 murine leukemia cells.
The subject of series [4] is L1210. In words: Compound was tested in vivo for cytotoxicity against L1210 murine leukemia cells in mice after intravenous administration.
The nature of series [5]: Hydrolysis in acetone/water (50:50) at a pH of 8.0, T=66 degree Centigrade. The following applies: buffer, pH 8.
The subject of series [6] is L1210. In words: Compound was tested in vivo for cytotoxicity against L1210 murine leukemia cells in mice after intravenous administration and is expressed as optimal non-toxic dose.

Broadly, the IC50 is the concentration that gives 50% inhibition. Read a low IC50 as inhibition by little substance. One may read the T/C as the result in the treated group divided by that in the control group, in per cent.

On to `CCN(CCCl)c1ccc(C(=O)Nc2cc(C(=O)Nc3cc(C(=O)Nc4cc(C(=O)NCCC(=N)N)n(C)c4)n(C)c3)n(C)c2)cc1`, for which the Khydrol in series [1] was 0.00032 s⁻¹. For the same molecule, the K alkyl in series [2] came out at 0.00055 s⁻¹. In the series on L1210 [3], this molecule had an IC50 of 0.042 µg/mL (≈ 0.0633 µM). This molecule also displayed a T/C in the series with L1210 [4] of 133%.
Take `Cn1cc(NC(=O)c2cc(NC(=O)c3cc(NC(=O)c4ccc(N(CCCl)CCCl)cc4)cn3C)cn2C)cc1C(=O)NCCC(=N)N`: the Khydrol in series [5] was found to be 3.8e-05 s⁻¹; in series [1] it was 7.4e-05 s⁻¹. For the same molecule, the K alkyl in series [2] is 0.00055 s⁻¹ and 0.00062 s⁻¹. Besides, the IC50 with L1210 [3] was found to be 0.208 µg/mL (≈ 0.298 µM). In the series on L1210 [4], the T/C stood at 118%. In the series on L1210 [6], this molecule showed an OD of 3.13 mg/kg.
Turning to `Cn1cc(NC(=O)c2cc(NC(=O)c3cc(NC(=O)c4ccc(N(CCBr)CCBr)cc4)cn3C)cn2C)cc1C(=O)NCCC(=N)N`, the Khydrol in series [1] amounted to 0.00064 s⁻¹. Also, the K alkyl in series [2] was 0.0062 s⁻¹. In addition, the IC50 in the series on L1210 [3] worked out at 0.0006 µg/mL (≈ 0.000763 µM). This molecule also had a T/C in the series with L1210 [4] of 169%.
For `CCN(CCCl)c1ccc(/C=C/C(=O)Nc2cc(C(=O)Nc3cc(C(=O)Nc4cc(C(=O)NCCC(=N)N)n(C)c4)n(C)c3)n(C)c2)cc1`, the IC50 with L1210 [3] is 0.0029 µg/mL (≈ 0.00421 µM). The T/C in the series on L1210 [4] amounted to 207%.
As for `Cn1cc(NC(=O)c2cc(NC(=O)c3cc(NC(=O)c4ccc(N(CCO)CCO)cc4)cn3C)cn2C)cc1C(=O)NCCC(=N)N`, the IC50 in the series on L1210 [3] is over 10 µg/mL.
Consider `CCCN(CCCl)c1ccc(C(=O)Nc2cc(C(=O)Nc3cc(C(=O)Nc4cc(C(=O)NCCC(=N)N)n(C)c4)n(C)c3)n(C)c2)cc1`, for which half-maximal inhibition with L1210 [3] (IC50) was put at 0.739 µg/mL (≈ 1.09 µM). Also, the T/C in the series on L1210 [4] amounted to 112%.
The molecule `Cn1cc(NC(=O)c2cc(NC(=O)c3cc(NC(=O)c4ccc(NCCCl)cc4)cn3C)cn2C)cc1C(=O)NCCC(=N)N` returned a half-maximal inhibitory concentration (IC50) with L1210 [3] of 0.45 µg/mL (≈ 0.709 µM).
In the case of `CCN(CCCl)c1ccc(C(=O)Nc2cc(C(=O)Nc3cc(C(=O)Nc4cc(C(=O)NCCC(=N)N)n(C)c4)n(C)c3)n(C)c2)cc1C`, the half-inhibitory concentration (IC50) in the series on L1210 [3] came out at 0.0555 µg/mL (≈ 0.082 µM). The same molecule came in with a T/C with L1210 [4] of 150%.
On to `Cn1cc(NC(=O)c2cc(NC(=O)c3cc(NC(=O)/C=C/c4ccc(N(CCCl)CCCl)cc4)cn3C)cn2C)cc1C(=O)NCCC(=N)N`, for which the Khydrol in series [1] amounted to 0.00029 s⁻¹. The K alkyl in series [2] amounted to 0.0013 s⁻¹. In addition, 0.0072 µg/mL (≈ 0.00995 µM) corresponded to half-maximal inhibition with L1210 [3] (IC50).
With `Cc1cc(C(=O)Nc2cc(C(=O)Nc3cc(C(=O)Nc4cc(C(=O)NCCC(=N)N)n(C)c4)n(C)c3)n(C)c2)cc(C)c1N(CCCl)CCCl`, the Khydrol in series [1] is 0.0028 s⁻¹. The midpoint of inhibition in the series with L1210 [3], the IC50, lay at 0.228 µg/mL (≈ 0.314 µM). The T/C with L1210 [4] is 171%.
With `Cn1cc(NC(=O)c2cc(NC(=O)c3cc(NC(=O)c4ccc(N(CCCl)CCCl)c(F)c4)cn3C)cn2C)cc1C(=O)NCCC(=N)N`, the Khydrol in series [1] is 5.6e-05 s⁻¹. Besides, the K alkyl in series [2] was 0.00058 s⁻¹. The molecule also returned an IC50 in the series with L1210 [3] of 0.223 µg/mL (≈ 0.311 µM).
In series [1], `Cc1cc(C(=O)Nc2cc(C(=O)Nc3cc(C(=O)Nc4cc(C(=O)NCCC(=N)N)n(C)c4)n(C)c3)n(C)c2)ccc1N(CCCl)CCCl` yielded a Khydrol of 0.0014 s⁻¹. This molecule showed a K alkyl in series [2] of 0.014 s⁻¹. The same molecule returned a half-inhibitory concentration (IC50) with L1210 [3] of 0.0111 µg/mL (≈ 0.0156 µM). The molecule further displayed a T/C with L1210 [4] of 175%.
In turn, `Cn1cc(NC(=O)c2cc(NC(=O)c3cc(NC(=O)c4ccc(N(CCF)CCF)cc4)cn3C)cn2C)cc1C(=O)NCCC(=N)N` showed a half-inhibitory concentration (IC50) with L1210 [3] of over 10 µg/mL.
